The target in the assay is T1, mCRFR2β (Mus musculus, UniProt Q60748).
T1 construct: mCRFR2β(Val25-C-term) - PhoA; made in house; host or cells: E. coli (membrane fraction)
In words: Competitive displacement of labeled astressin, mCRFR2β in E. coli membranes. Particulars: read-out: Inhibitory binding constant (Ki). As to the method: The incubation was performed at room temp for 90-120 min, at which time the plates were aspirated and each well was washed with 2×100 μl assay buffer, dried and counted in a γ-counter. Each assay included at least triplicate wells for each concentration, and the assays were repeated at least twice (except where indicated). […] The saturation and competitive binding experiments are analyzed by non-linear regression with the GraphPad Prism program (www.graphpad.com) assuming binding to a single site. Specifically, for saturation binding experiments, binding is determined as a function of increasing concentrations of radioligand. The equation used is y = {(Bmax)^.[radioligand]}/{Kd+[radioligand]}, where y = the specific binding (i.e., total binding-non-specific binding). Competitive binding experiments use a constant concentration of radioligand together with increasing concentrations of competitor. […] Because [radioligand] is <Kd, the Ki = EC50. For multiple determinations, Log (EC50) values were averaged to calculate the values in Table 1. […] In Table 1, the inhibition constant (Ki) values are shown together with the standard error and ranges, calculated assuming log normal distribution.

Sequences of proteins named here, by UniProt entry; tags and fusion partners are left off. Residues count along the entry.
UniProt Q60748, 25-431 isoform Q60748-2: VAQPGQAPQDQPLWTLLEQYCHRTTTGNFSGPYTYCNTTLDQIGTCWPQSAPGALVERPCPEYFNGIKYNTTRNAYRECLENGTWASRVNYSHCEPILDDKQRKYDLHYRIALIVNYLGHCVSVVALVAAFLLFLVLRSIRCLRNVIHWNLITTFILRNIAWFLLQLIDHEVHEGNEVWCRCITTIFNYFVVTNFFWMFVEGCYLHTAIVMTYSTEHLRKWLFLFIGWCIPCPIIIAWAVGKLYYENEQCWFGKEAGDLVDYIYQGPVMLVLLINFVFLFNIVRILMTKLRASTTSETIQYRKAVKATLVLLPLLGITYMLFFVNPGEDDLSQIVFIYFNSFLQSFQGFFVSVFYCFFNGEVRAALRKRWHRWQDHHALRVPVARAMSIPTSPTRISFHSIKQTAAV

The Ki is a measure of affinity in units of concentration, obtained from inhibition or displacement. As to `CC[C@H](C)[C@H](NC(=O)[C@H](CCC(N)=O)NC(=O)[C@H](C)NC(=O)[C@H](CC(N)=O)NC(=O)[C@@H](NC(=O)[C@H](C)NC(=O)[C@H](C)NC(=O)[C@H](CCC(N)=O)NC(=O)[C@H](CC(N)=O)NC(=O)[C@H](CCCNC(=N)N)NC(=O)[C@H](C)NC(=O)[C@H](C)NC(=O)[C@H](CCCCN)NC(=O)[C@H](Cc1ccc(O)cc1)NC(=O)[C@H](CCCNC(=N)N)NC(=O)[C@H](C)NC(=O)[C@H](CCC(N)=O)NC(=O)[C@H](CCC(=O)O)NC(=O)[C@H](CC(C)C)NC(=O)[C@H](CC(C)C)NC(=O)[C@@H](NC(=O)[C@H](CCCNC(=N)N)NC(=O)[C@H](CC(C)C)NC(=O)[C@H](CC(C)C)NC(=O)CNC(=O)[C@@H](NC(=O)[C@@H]1CCCN1C(=O)[C@@H](NC(=O)[C@H](CC(=O)O)NC(=O)[C@H](CC(C)C)NC(=O)[C@H](CO)NC(=O)[C@H](CC(C)C)NC(=O)[C@@H](NC(=O)[C@@H](N)C(C)C)[C@@H](C)CC)C(C)C)[C@@H](C)CC)[C@@H](C)CC)[C@@H](C)O)C(=O)N[C@@H](CC(C)C)C(=O)N[C@@H](C)C(=O)N[C@@H](Cc1c[nH]cn1)C(=O)N[C@H](C(N)=O)C(C)C` [mUcn2], the Ki amounted to 17.7 nM.

The values above are taken from article PMC3894963, “Expression and Functional Characterization of Membrane-Integrated Mammalian Corticotropin Releasing Factor Receptors 1 and 2 in Escherichia coli” (PLoS ONE, 2014).
